The source of these data is US12473298B2, “Amide compounds, preparation method therefor, and use thereof in the medical field” (Shanghai Synergy Pharmaceutical Sciences Co., Ltd., priority 2019, dated 2025).

By UniProt entry, the sequences of proteins in these tests, tags left out.
UniProt Q15910, whole entry Y641F: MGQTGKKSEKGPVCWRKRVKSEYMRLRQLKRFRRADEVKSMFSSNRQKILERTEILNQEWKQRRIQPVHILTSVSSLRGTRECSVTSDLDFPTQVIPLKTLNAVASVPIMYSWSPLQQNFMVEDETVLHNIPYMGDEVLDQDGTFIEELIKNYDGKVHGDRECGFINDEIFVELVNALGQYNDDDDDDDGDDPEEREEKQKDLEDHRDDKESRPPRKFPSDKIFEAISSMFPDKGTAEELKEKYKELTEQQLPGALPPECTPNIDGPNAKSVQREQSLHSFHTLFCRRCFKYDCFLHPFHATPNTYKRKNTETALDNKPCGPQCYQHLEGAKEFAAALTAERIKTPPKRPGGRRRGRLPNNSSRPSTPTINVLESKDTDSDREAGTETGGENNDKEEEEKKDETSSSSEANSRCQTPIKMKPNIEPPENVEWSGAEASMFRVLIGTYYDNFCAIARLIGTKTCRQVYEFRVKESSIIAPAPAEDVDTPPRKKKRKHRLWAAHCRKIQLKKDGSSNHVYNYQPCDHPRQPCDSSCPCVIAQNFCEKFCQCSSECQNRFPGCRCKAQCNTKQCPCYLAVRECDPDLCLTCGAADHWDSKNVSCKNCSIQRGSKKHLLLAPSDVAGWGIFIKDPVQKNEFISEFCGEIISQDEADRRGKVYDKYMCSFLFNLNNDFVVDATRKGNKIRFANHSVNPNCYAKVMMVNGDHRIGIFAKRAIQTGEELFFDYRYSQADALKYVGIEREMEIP
UniProt Q15910, whole entry A677G: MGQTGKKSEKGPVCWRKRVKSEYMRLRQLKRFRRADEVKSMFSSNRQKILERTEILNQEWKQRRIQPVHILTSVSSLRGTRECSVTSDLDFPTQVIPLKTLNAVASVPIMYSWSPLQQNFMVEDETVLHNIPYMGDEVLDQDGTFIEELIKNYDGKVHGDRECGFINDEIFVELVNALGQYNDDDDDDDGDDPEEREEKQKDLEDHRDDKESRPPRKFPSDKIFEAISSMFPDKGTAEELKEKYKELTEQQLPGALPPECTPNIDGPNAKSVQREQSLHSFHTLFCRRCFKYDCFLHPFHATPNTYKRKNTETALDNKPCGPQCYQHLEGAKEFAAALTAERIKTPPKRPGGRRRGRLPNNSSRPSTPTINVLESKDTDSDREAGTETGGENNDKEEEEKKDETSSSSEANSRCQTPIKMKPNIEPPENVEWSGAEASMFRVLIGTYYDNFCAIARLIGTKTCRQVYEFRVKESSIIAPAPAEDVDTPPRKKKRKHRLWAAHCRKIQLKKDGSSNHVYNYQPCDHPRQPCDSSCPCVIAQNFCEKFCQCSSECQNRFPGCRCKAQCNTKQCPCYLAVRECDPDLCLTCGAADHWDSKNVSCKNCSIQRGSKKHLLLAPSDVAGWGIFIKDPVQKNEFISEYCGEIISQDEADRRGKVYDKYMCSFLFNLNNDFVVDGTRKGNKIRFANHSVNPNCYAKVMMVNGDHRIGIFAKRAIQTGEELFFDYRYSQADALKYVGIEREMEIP
UniProt Q15910, whole entry: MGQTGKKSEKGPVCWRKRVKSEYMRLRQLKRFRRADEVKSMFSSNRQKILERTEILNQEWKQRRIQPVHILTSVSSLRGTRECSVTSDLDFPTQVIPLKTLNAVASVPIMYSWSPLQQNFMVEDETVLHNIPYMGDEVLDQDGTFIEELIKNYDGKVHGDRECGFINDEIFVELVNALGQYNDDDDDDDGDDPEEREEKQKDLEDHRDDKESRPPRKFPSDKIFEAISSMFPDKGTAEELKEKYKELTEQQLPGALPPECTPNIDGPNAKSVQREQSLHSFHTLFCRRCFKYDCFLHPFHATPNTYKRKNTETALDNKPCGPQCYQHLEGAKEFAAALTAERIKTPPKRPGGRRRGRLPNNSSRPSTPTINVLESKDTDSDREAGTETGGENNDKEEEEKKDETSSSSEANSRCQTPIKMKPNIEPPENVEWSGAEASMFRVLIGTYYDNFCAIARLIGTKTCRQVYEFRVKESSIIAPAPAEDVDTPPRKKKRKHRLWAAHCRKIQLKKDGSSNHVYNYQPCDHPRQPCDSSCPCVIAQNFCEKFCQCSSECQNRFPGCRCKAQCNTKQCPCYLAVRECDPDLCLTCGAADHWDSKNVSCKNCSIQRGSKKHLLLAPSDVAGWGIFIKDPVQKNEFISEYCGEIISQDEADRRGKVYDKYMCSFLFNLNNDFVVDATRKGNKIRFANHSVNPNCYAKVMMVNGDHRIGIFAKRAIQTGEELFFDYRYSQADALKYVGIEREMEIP
UniProt Q15910, whole entry Y641N: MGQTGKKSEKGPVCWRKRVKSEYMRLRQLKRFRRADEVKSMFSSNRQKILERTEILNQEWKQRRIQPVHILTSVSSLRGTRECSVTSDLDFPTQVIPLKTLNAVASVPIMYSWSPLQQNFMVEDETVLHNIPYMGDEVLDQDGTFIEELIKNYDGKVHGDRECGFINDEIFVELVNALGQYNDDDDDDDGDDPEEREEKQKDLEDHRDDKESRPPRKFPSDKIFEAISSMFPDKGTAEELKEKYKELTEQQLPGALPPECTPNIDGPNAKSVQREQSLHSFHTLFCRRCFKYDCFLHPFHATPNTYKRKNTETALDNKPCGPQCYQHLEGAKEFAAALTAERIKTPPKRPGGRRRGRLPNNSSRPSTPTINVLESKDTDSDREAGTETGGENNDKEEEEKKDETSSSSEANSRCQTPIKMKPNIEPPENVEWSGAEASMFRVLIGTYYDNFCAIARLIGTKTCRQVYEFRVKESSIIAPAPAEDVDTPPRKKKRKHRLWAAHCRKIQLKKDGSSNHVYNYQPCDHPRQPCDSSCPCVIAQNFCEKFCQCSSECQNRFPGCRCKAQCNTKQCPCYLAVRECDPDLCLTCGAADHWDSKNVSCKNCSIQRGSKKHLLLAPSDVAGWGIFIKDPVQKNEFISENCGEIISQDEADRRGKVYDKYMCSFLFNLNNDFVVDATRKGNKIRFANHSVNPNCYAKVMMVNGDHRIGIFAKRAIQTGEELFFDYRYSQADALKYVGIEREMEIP

Like-named read-outs stand apart in the source and are kept apart here.

For assay [1], the target named is Mutant type EZH2(Y641F) (Homo sapiens (Human), UniProt Q15910, Y641F). Description: AlphaLISA, mutant type PRC2 complex EZH2(Y641F). Type of assay: biochemical.
The target of assay [2] is Mutant type EZH2(A677G) (Homo sapiens (Human), UniProt Q15910, A677G). Description: AlphaLISA, mutant type PRC2 complex EZH2(A677G). In kind it is biochemical. The settings on record: read-out: Mutant type EZH2(A677G) IC59 Nanomoles per Liter.
The target in assay [3] is wild-type EZH2 (Homo sapiens (Human), UniProt Q15910). Description: radiometric assay, activity to wild-type EZH2 of PRC2.
Assay [4] deals with Mutant type EZH2(Y641N) (Homo sapiens (Human), UniProt Q15910, Y641N). The assay can be described thus: AlphaLISA, mutant type PRC2 complex EZH2(Y641N). Type of assay: biochemical.
Assay [5] concerns human diffuse large cell lymphoma B lymphocytes (Pfeiffer cell). Description: Pfeiffer cell proliferation, Calcein AM staining. In kind it is cell-based. The settings on record: Homo sapiens, Pfeiffer, read-out: Pfeiffer Proliferation IC50 Nanomoles per Liter (nM), data of 14th day.
Assay [6] has as its system human diffuse large B-cell lymphoma cells (Karpas 422 cell). The assay can be described thus: Karpas 422 cell proliferation, Calcein AM staining. The following applies: Homo sapiens, KARPAS-422, read-out: Karpas422 Proliferation IC50 Nanomoles per Liter (nM), data of 14th day. In kind it is cell-based.
Where [7] appears, read: read-out: Mutant type EZH2(Y641F) IC50 Nanomoles per Liter.
Setting [8] is: read-out: Wild-type EZH2 IC50 Nanomoles per Liter.
The mark [9] stands for this setting: read-out: Mutant type EZH2(Y641N) IC50 Nanomoles per Liter.

On to `CCN(c1cc(-c2cc3c(cc2F)C2(CCOCC2)CC3)cc(C(=O)NCc2c(OC)cc(C)[nH]c2=O)c1C)C1CCOCC1` [Example 17, 3-(ethyl(tetrahydro-2H-pyran-4-yl)amino)-5-(6-fluoro-2,2′,3,3′,5′,6′-hexahydrospiro[indene-1,4′-pyran]-5-yl)-N-((4-methoxy-6-methyl-2-carbonyl-1,2-dihydropyridin-3-yl)methyl)-2-methylbenzamide], for which the IC50 in assay [1] (setting [7]) turned out to be 0.75 nM; in assay [2], 0.46 nM.
As to `CCN(c1cc(-c2cc3c(cc2F)C2(CCOCC2)CC3)cc(C(=O)NCc2c(C)cc(C)[nH]c2=O)c1C)C1CCOCC1` [Example 23], the IC50 in assay [1] (setting [7]) is 0.75 nM.
Turning to `CCN(c1cc(-c2cc3c(cc2F)CCC32CCOCC2)cc(C(=O)NCc2c(C)cc(C)[nH]c2=O)c1C)C1CCOCC1` [Example 24, N-((4,6-dimethyl-2-carbonyl-1,2-dihydropyridin-3-yl)methyl)-3-(ethyl(tetrahydro-2H-pyran-4-yl)amino)-5-(5-fluoro-2,2′,3,3′,5′,6′-hexahydrospiro[indene-1,4′-pyran]-6-yl)-2-methylbenzamide], the IC50 in assay [3] (setting [8]) came out at 0.75 nM.
Regarding `CCN(c1cc(-c2ccc3c(c2)CCC32CCOCC2)cc(C(=O)NCc2c(OC)cc(C)[nH]c2=O)c1C)C1CCOC(C)(C)C1` (stereo not drawn) [Example 43, 3-((2,2-dimethyltetrahydro-2H-pyran-4-yl)(ethyl)amino)-5-(2,2′,3,3′,5′,6′-hexahydrospiro[indene-1,4-pyran]-5-yl)-N-((4-methoxy-6-methyl-2-oxo-1,2-dihydropyridin-3-yl)methyl)-2-methylbenzamide], the IC50 in assay [2] was 0.23 nM; in assay [4] (setting [9]), 0.08 nM; in assay [3] (setting [8]) it was 0.61 nM.
`CCN(c1cc(-c2ccc3c(c2)N(C)C(=O)C32CCN(CC(F)(F)C(F)(F)F)CC2)cc(C(=O)NCc2c(C)cc(C)[nH]c2=O)c1C)C1CCOCC1` [Example 44, N-((4,6-dimethyl-2-oxo-1,2-dihydropyridin-3-yl)methyl)-3-(ethyl(tetrahydro-2H-pyran-4-yl)amino)-2-methyl-5-(1-methyl-2-oxo-1′-(2,2,3,3,3-pentafluoroethyl)spiro[dihydroindole-3,4′-piperidine]-6-yl)benzamide]: the IC50 in assay [1] is 0.75 nM; in assay [4] it was 0.3 nM; in assay [5] it was 1.75 nM; in assay [6] it was 2.14 nM; in assay [3] it was 0.91 nM.
The like results for `CCN(c1cc(-c2ccc3c(c2)N(C(C)C)CC32CCOCC2)c(Cl)c(C(=O)NCc2c(OC)cc(C)[nH]c2=O)c1C)C1CCOCC1` [Example 49, 2-chloro-5-(ethyl(tetrahydro-2H-pyran-4-yl)amino)-3-(1-isopropyl-2,3,5,6-tetrahydrospiro[dihydroindole-3,4-pyran]-6-yl)-N-((4-methoxy-6-methyl-2-oxo-1,2-dihydropyridin-3-yl)methyl)-6-methylbenzamide] were, in that order, 0.39 nM, 0.12 nM, 0.15 nM, 0.93 nM and 0.61 nM.
On to `CCN(c1cc(-c2ccc3c(c2)N(C)C(=O)C32CCN(C(C)C)CC2)c(F)c(C(=O)NCc2c(C)cc(C)[nH]c2=O)c1C)C1CCOCC1` [Example 61, N-((4,6-dimethyl-2-oxo-1,2-dihydropyridin-3-yl)methyl)-3-(ethyl(tetrahydro-2H-pyran-4-yl)amino)-6-fluoro-5-(1′-isopropyl-1-methyl-2-oxospiro[dihydroindole-3,4′-piperidine]-6-yl)-2-methylbenzamide], for which the IC50 in assay [4] is 0.22 nM; in assay [6] it was 0.76 nM.
With `CCN(c1cc(-c2ccc3c(c2)C2(CCOCC2)C(=O)N3)cc(C(=O)NCc2c(C)cc(C)[nH]c2=O)c1C)C1CCOCC1` [Example 77, N-((4,6-dimethyl-2-oxo-1,2-dihydropyridin-3-yl)methyl)-3-(ethyl(tetrahydro-2H-pyran-4-yl)amino)-2-methyl-5-(2-oxo-2′,3′,5′,6′-tetrahydrospiro[dihydroindole-3,4′-pyran]-5-yl)benzamide], in assay [1] (setting [7]), the IC50 came to 0.75 nM.
Turning to `CCN(c1cc(-c2ccc3c(c2)NC(=O)C32CCN(C(=O)OC(C)(C)C)CC2)cc(C(=O)NCc2c(C)cc(C)[nH]c2=O)c1C)C1CCOCC1` [Example 79, Tert-butyl 6-(3-(((4,6-dimethyl-2-oxo-1,2-dihydropyridin-3-yl)methyl)carbamoyl)-5-(ethyl(tetrahydro-2H-pyran-4-yl)amino)-4-methylphenyl)-2-oxospiro[dihydroindole-3,4′-piperidine]-1′-carboxylate], the IC50 in assay [2] came to 0.75 nM.
For `CCN(c1cc(-c2ccc3c(c2)NC(=O)C32CCN(S(C)(=O)=O)CC2)cc(C(=O)NCc2c(C)cc(C)[nH]c2=O)c1C)C1CCOCC1` [Example 87, N-((4,6-dimethyl-2-oxo-1,2-dihydropyridin-3-yl)methyl)-3-(ethyl(tetrahydro-2H-pyran-4-yl)amino)-2-methyl-5-(1′-methylsulfonyl-2-oxospiro[dihydroindole-3,4′-piperidine]-6-yl)benzamide], the IC50 in assay [3] (setting [8]) came to 0.46 nM.
For the molecule `CCN(c1cc(-c2ccc3c(c2)NC(=O)C32CCSCC2)cc(C(=O)NCc2c(C)cc(C)[nH]c2=O)c1C)C1CCOCC1` [Example 89, N-((4,6-dimethyl-2-oxo-1,2-dihydropyridin-3-yl)methyl)-3-(ethyl(tetrahydro-2H-pyran-4-yl)amino)-2-methyl-5-(2-oxo-2′,3′,5′,6′-tetrahydrospiro[dihydroindole-3,4′-thiapyran]-6-yl)benzamide], the IC50 in assay [2] was determined as 0.46 nM.
Take `CCN(c1cc(-c2ccc3c(c2)NC(=O)C32CCOCC2)cc(C(=O)NCc2c(C)cc(C)[nH]c2=O)c1C)C1CCC(N(C)CCOC)CC1` (stereo not drawn) [Example 99, N-((4,6-Dimethyl-2-oxo-1,2-dihydropyridin-3-yl)methyl)-3-(ethyl(4-((2-methoxyethyl)(methyl)amino)cyclohexyl)amino)-2-methyl-5-(2-oxo-2′,3′,5′,6′-tetrahydrospiro[dihydroindole-3,4′-pyran]-6-yl)benzamide]: the IC50 in assay [4] (setting [9]) amounted to 0.46 nM.
For `CCN(c1cc(-c2ccc3c(c2)NC(=O)C32CCOCC2)cc(C(=O)NCc2c(C)cc(C)[nH]c2=O)c1C)C1CC(C)OC(C)C1` (stereo not drawn) [Example 104, N-((4,6-Dimethyl-2-oxo-1,2-dihydropyridin-3-yl)methyl)-3-(ethyl(2,6-dimethyltetrahydro-2H-pyran-4-yl)amino)-2-methyl-5-(2-oxo-2′,3′,5′,6′-tetrahydrospiro[dihydroindole-3,4′-pyran]-6-yl)benzamide], in assay [3] (setting [8]), the IC50 stood at 0.46 nM.
Same read-out and setting: the value for `CCN(c1cc(-c2ccc3c(c2)CCC32CCOCC2)cc(C(=O)NCc2c(OC)cc(C)[nH]c2=O)c1C)C1CCOCC1` [Example 113, 3-(Ethyl(tetrahydro-2H-pyran-4-yl)amino)-5-(2,2′,3,3′,5′,6′-hexahydrospiro[indene-1,4′-pyran]-5-yl)-N-((4-methoxy-6-methyl-2-oxo-1,2-dihydropyridin-3-yl)methyl)-2-methylbenzamide] was 0.75 nM.
In the case of “N-((4,6-dimethyl-2-carbonyl-1,2-dihydropyridin-3-yl)methyl)-3-(ethyl(tetrahydro-2H-pyran-4-yl)amino)-2-methyl-5-(1-neopentyl-2′,3′,5′,6′-tetrahydrospiro[dihydroindole-3,4′-pyran]-6-yl)benzamide [Example 29]”, the IC50 in assay [2] turned out to be 0.61 nM.
